Values quoted from earlier work, collected in US11207276B2, “Multiparticulate L-menthol formulations and related methods” (Société des Produits Nestlé S.A., priority 2011, dated 2021).

Conditions: L-menthol from delayed release single-unit dosage forms

## CC(C)[C@@H]1CC[C@@H](C)C[C@H]1O [L-menthol]
  systemic exposure of L-menthol limited to: approximately 4 hours
